Source: US6770799B2, “Expression of recombinant human acetylcholinesterase in transgenic plants” (priority 2000, dated 2004)

Amino acid sequences for entries named in this document (tags omitted). Residues count along the entry.
UniProt P22303, 32-574: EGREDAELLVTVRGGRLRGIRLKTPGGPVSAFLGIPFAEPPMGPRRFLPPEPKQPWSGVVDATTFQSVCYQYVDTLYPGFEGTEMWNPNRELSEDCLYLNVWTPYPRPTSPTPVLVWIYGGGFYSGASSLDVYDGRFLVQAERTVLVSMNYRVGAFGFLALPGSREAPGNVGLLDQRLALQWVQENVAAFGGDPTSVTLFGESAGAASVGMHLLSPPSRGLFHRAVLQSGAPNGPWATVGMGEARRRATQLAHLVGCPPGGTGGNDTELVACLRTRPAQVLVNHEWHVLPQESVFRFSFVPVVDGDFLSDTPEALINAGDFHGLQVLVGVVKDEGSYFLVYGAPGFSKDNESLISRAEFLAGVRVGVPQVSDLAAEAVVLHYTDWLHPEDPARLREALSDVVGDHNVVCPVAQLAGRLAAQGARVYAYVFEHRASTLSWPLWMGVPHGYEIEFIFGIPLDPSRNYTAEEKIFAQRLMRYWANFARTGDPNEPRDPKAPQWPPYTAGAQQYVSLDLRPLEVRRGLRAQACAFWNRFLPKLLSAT
UniProt P22303, 32-617 isoform P22303-2 limits assumed: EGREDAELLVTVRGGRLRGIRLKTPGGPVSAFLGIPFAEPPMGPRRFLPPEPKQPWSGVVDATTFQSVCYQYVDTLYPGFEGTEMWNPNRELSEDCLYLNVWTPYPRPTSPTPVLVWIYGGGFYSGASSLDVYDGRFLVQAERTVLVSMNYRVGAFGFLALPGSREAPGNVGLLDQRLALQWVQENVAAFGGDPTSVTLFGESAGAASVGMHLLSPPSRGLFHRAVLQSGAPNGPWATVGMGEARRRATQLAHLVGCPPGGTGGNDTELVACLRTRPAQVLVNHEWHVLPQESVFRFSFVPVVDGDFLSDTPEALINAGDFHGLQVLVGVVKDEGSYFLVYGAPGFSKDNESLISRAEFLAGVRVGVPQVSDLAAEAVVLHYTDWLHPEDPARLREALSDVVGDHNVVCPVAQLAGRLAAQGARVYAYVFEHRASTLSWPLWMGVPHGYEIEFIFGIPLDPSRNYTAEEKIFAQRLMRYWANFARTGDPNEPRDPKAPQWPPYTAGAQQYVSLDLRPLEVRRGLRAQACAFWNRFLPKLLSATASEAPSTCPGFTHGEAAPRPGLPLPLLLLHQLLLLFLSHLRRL
UniProt P22303, 32-614: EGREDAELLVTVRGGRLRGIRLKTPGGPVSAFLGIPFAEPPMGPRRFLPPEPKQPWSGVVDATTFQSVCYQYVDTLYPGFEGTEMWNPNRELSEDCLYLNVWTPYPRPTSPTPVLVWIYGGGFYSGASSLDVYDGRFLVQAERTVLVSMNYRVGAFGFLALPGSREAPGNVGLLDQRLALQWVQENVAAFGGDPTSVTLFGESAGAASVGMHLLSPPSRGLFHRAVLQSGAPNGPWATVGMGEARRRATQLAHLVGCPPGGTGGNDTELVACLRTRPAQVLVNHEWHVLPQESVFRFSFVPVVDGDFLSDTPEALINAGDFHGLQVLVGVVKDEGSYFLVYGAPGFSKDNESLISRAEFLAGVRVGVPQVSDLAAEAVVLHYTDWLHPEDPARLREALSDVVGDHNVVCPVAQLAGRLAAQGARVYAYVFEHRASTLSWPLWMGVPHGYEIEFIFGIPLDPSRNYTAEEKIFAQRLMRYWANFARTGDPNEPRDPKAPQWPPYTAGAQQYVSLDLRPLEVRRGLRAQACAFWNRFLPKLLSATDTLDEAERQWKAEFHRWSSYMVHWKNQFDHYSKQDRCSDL

What was measured:
[1] = target: T1, plant derived recombinant AChE (rAChE) (Homo sapiens, UniProt P22303); assay: Inhibition of plant-derived recombinant AChE (Ellman assay); format: biochemical
T1 construct: We expressed the engineered AChE-E4 form, encoded by exons 2-4 of the human gene; made in house; host or cells: transgenic tomato (Lycopersicum esculentum cv. Micro-Tom), cleared leaf extracts

[2] = target: human AChE derived from erythrocytes (Homo sapiens, UniProt P22303); conditions: erythrocyte form; comparison value; cited from earlier work
[3] = target: recombinant human synaptic enzyme transiently expressed in mammalian cell cultures (Homo sapiens, UniProt P22303); conditions: comparison value; cited from earlier work

## C=CC[N+](C)(C)c1ccc(CCC(=O)CCc2ccc([N+](C)(C)CC=C)cc2)cc1.[Br-].[Br-] [BW284c51, 1,5-bis(allyldimethylammiumphenyl)pentan-3 one dibromide]
[1]; 1 mM acetylthiocholine
  inhibition of plant derived rAChE: can inhibit
[1]; 1, 0.33 and 0.25 mM acetylthiocholine, inhibitor 10^-4 to 10^-10 M
  Ki: 16 nM
[2]
  Ki: 5 nM
[3]
  Ki: 10 nM
